Molecular target: cRAD-CK2β_((186–200)) display protein (Pyrococcus furiosus | human) (UniProt O74036)
Experiment: SPR; Biacore T100, CM5, peptides or cRAD display proteins immobilised through their cysteine (240-400 RU), kinase as analyte 2.5 nM-2.5 μM, 25°C, 10 mM HEPES pH 7.4, 500 mM NaCl, 0.05% P20; 1:1 steady-state affinity model; CK2α data analysed at 200 s post-injection

- Kd: 0.237 µM
Substance: CK2α kinase (from UniProt P68400 2-329) (enzyme)

Reference: PMC5897841, “Development of a multipurpose scaffold for the display of peptide loops” (Protein Engineering, Design and Selection, 2017)
